Reference: the NIST ThermoML archive (doi:10.1016/j.jct.2013.09.007)

Assay: activity coefficient (dimensionless); of the first substance listed, at infinite dilution; xn = mol fraction of the nth substance listed
Conditions: 101 kPa, Liquid, Chromatography, x1 = 0

CCCCOCCCC [dibutyl ether] + CCCC[n+]1cccc(C)c1.N#C[N-]C#N
Conditions	activity coefficient
308.15 K	41.9
318.15 K	39.2
328.15 K	37.1
338.15 K	35.1
348.15 K	34
358.15 K	32
368.15 K	30.8
